These are literature values, as cited in publication PMC9820559, “Investigation of the Fuzzy Complex between RSV Nucleoprotein and Phosphoprotein to Optimize an Inhibition Assay by Fluorescence Polarization” (International Journal of Molecular Sciences, 2022).

Chains of the proteins cited; added tags and fusions are not shown. Lines headed by an entry give the natural chain unless they say otherwise; changes in a name come on top.
UniProt P03421: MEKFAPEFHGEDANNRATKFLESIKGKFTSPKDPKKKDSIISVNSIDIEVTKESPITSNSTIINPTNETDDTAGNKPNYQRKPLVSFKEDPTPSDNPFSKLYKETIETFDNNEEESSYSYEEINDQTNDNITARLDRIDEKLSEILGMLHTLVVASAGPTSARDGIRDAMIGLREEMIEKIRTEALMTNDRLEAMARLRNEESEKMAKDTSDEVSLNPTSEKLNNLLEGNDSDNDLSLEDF

A word on the Kd: it is the concentration at which binding is half-saturated.

Data set [1] addresses RSV phosphoprotein P2 peptide C-terminal 2-mer (Human respiratory syncytial virus) (UniProt P03421). The experiment in a line: NMR. To be noted: cited from earlier work.
Data set [2] concerns the target RSV phosphoprotein P12 peptide C-terminal 12-mer (Human respiratory syncytial virus) (UniProt P03421). Description: NMR. To be noted: cited from earlier work.

For the substance “RSV nucleoprotein NTD (from UniProt P03418)”, the results for the Kd in data set [1] and in data set [2] were 4200 µM and 54 µM, respectively.
